Experimental findings from ChEMBL document CHEMBL4049431 (J Med Chem, 2017) are described below.

The chains behind the UniProt entries cited, without tags or fusion partners. Where a name states a change or a piece, a line headed by the entry shows the natural chain unless it says otherwise.
UniProt P41145: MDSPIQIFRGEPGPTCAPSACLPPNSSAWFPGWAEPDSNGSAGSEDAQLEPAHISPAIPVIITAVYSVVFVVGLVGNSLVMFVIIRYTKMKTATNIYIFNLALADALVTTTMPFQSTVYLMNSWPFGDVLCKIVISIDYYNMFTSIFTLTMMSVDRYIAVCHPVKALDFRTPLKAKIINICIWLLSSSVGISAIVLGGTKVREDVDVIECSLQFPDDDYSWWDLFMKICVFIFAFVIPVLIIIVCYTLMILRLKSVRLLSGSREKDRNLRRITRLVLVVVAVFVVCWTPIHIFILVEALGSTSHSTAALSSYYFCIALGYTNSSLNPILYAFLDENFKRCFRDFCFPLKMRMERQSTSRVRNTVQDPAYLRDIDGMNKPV

pEC50: −log10 of the molar value.

The experiment concerns the target Kappa-type opioid receptor (Homo sapiens, UniProt P41145). Kind of experiment: Agonist activity at human kappa-type opioid receptor expressed in CHO-K1 cells assessed as forskolin-induced cAMP accumulation after 30 mins in presence of forskolin by luminescence-based HitHunter cAMP assay. Format: functional, cell-based. In outline:
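CHO-K1 cells expressing the receptor were kept at 37 °C in 5% CO2. cAMP data were normalized to vehicle and forskolin-only controls. Each compound was run in triplicate in parallel assays in ≥2 independent experiments. EC50 and Emax came from sigmoidal nonlinear regression and were averaged across experiments as mean ± SEM.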

As usually defined, the pEC50 is the EC50 on a negative log10 scale, so that one unit is a factor of ten. For the compound `COC(=O)[C@@H]1C[C@H](O)C(=O)[C@H]2[C@@]1(C)CC[C@H]1C(=O)O[C@H](c3ccoc3)C[C@]21C` [SALVINORIN B], the pEC50 is 8.62.
